Data on 1 molecule can be found in publication PMC4546118 (SpringerPlus, 2015).

The data set is described as follows: Pharmacokinetics of VCM after intravenous administration to control and PN rats. The conditions noted are these: PN rats (parenteral nutrition for 9 days), 5 mg/kg intravenous bolus, two-compartment model, plasma LC/MS/MS, mean of n = 4.

Turning to `CN[C@H](CC(C)C)C(=O)N[C@H]1C(=O)N[C@@H](CC(N)=O)C(=O)N[C@H]2C(=O)N[C@H]3C(=O)N[C@H](C(=O)N[C@H](C(=O)O)c4cc(O)cc(O)c4-c4cc3ccc4O)[C@H](O)c3ccc(c(Cl)c3)Oc3cc2cc(c3O[C@@H]2O[C@H](CO)[C@@H](O)[C@H](O)[C@H]2O[C@H]2C[C@](C)(N)[C@H](O)[C@H](C)O2)Oc2ccc(cc2Cl)[C@H]1O` [VCM, vancomycin], the “t1/2β (elimination half-life)” value was determined as 1.29 h.
